Measurements taken from US20090214475A1, “Extractability and Bioavailability of the Natural Antioxidant Astaxanthin From a Green Alga, Haematococcus Pluvialis” (published 2009).

Test system: H. pluvialis
Assay: Effect of MNNG dose and treatment time on cell survival rate

Q: What does the source list for MNNG?
A: cell death / survival rate (100 μg mL^−1 MNNG for 5 or 10 min): did not cause significant cell death; survival rate (100 μg mL^−1 MNNG, 15 min): ca. 70%; survival rate (100 μg mL^−1 MNNG, 30 min): < 30%; survival rate (100 μg mL^−1 MNNG, 60 min): around 20%; survival rate (1,000 μg MNNG mL^−1, 30 min): ca. 1%
